Data on two sequences can be found in patent US7259235B2, “Method for generating an immune response and reagents therefor” (Ludwig Institute for Cancer Research, priority 2002, dated 2007).

In the test the test system is CD8+ cells. Put plainly: HLA-A2 tetramer staining of CD8+ cells after in vitro stimulation with peptide or Adeno/ESO. It is filed as cell-based, human. The note with it: vaccinated with S9C and S11L, T cells stimulated in vitro with the labelled agent. The protocol:
See Gnjatic, et al., supra, incorporated by reference, for information on the transfection of cells with this construct. Autologous PBLs depleted of CD8^+ cells were infected with the adenoviral constructs, at 100 IU/cell, overnight, at 37° C. in 250 μl serum free medium, and processed further, as described supra.
The results of these studies are summarized in the tables which follow, using exemplary patients vaccinated or not vaccinated with SEQ ID NO: 1 or 2.
Adeno/ESO represents the adenoviral construct expressing the complete NY-ESO-1 antigen. T cells were stimulated in vitro with autologous pBMCs, either pulsed with the indicated peptide, or which had been transduced with Adeno/ESO.

Setting [1] is: Patient NW924: pre-existing immunity.
Where [2] appears, read: Patient NW866: no pre-existing immunity.

Under setting [1], LMWITQCFL (H. sapiens) [SEQ ID NO: 3] registered an S11L-tetramer of 0.02%.
Under setting [2], SLLMWITQCFL (H. sapiens) [SEQ ID NO: 2] registered an L9L-tetramet of 3.98%, an S9C-tetramer of 0.06% and an S11L-tetramer of 0.03%. Further, under setting [1], the L9L-tetramet worked out at 5.59%, the S9C-tetramer is on record as 5.88% and the S11L-tetramer was 0.13%.
